Data reported in PMC5159281 (2016).

What was measured:
CRL-8155 cells = assay: cells; settings: Homo sapiens, CRL8155, read-out: CRL8155 EC50
[1] = system: P. falciparum blood stage; settings: result in words
HepG2 cells = assay: cells; settings: Homo sapiens, HepG2, read-out: HepG2 EC50

Row | Structure (SMILES) | EC50 (CRL-8155 cells) [µM] | anti-erythrocytic stage inhibition [1] | EC50 (HepG2 cells) [µM]
1 | CCOc1ccc2cc(-c3nn(C(C)(C)C)c(N)c3C(N)=O)ccc2c1 [Compound 5] | > 30 | some observable anti-erythrocytic stage inhibition | > 30
2 | CCOc1ccc2cc(-c3nn(C(C)(C)C)c(N)c3C(N)=O)cnc2c1 [Compound 6] | > 30 |  | 
3 | CC(C)(C)n1nc(-c2cnc3cc(OC4CC4)ccc3c2)c(C(N)=O)c1N [Compound 8] | > 30 |  | > 30
4 | NC(=O)c1c(-c2ccc3ccccc3c2)nn(CC(F)(F)F)c1N [Compound 12] | > 30 |  | > 30
5 | CC(C)n1nc(-c2ccc3nc(OC4CCC4)ccc3c2)c(C(N)=O)c1N [Compound 27] | > 30 |  | > 30
